# Experimental data as given in PubChem BioAssay AID1885 (Broad Institute, 2009).
# The list shows a part of the results, in another mix than the full data. Some salts and complexes are drawn in separate pieces, as the source files them; their charges need not balance. The source made the active and inactive calls.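 How the source made its calls: active means mean inhibition across valid replicates above about 55% (limit read from the data); inconclusive means mean below that limit but half or more replicates reach it; inactive means mean below it, under half of replicates reach it.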
# Assay: Trypanosoma cruzi replication blockers in host cells – luminescence, NIH3T3 host cells, primary screen (AID 1885);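 further: signal also drops with host cell toxicity which is not excluded here; 0% = plate median of DMSO wells and 100% = zero luminescence signal; higher percent means less beta-gal luminescence so fewer parasites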
# Details: T. cruzi beta-gal in NIH3T3, luminescence, 90 h; active compounds read high; concentration not given here
# Method in brief: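 Test system: β-gal T. cruzi (Tulahuen C4) inside NIH/3T3 cells / Quantity: 5,000 cells/well / Measured by: luminescence from GalScreen with 0.05% NP40, read after 60 min / Medium: DMEM plus 2% FBS / Measure: parasite load inhibition, % / Reagent: Tulahuen C4 trypomastigotes, 5000/well / Schedule: co-culture of at least 90 h after 3 h attachment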
row,Structure (SMILES),inhibition
1,COc1ccc(OP(C)(=O)Nc2ccc(SC(F)(F)F)cc2)cc1 (stereo not drawn),inactive: 1.61%
2,CCOC(=O)c1ccc(NP(C)(=O)Oc2ccc(F)cc2)cc1 (stereo not drawn),inactive: -38.8%
3,c1ccc(-c2nn[nH]n2)c(-c2nn[nH]n2)c1,inactive: -7.2%
4,Cc1ccc(NP(=O)(Oc2cccc(C)c2)Oc2cccc(C)c2)nc1,inactive: 5.6%
5,CCOC(=O)NC(Sc1ccccc1)C(Cl)(Cl)Cl (stereo not drawn),inactive: -13.3%
6,CCNC(=S)/N=C(\N)N[N+](=O)[O-],inactive: -4.22%
7,O=C(NC1CCS(=O)(=O)C1)NP(=S)(Oc1ccccc1)Oc1ccccc1 (stereo not drawn),inactive: 10.2%
8,Cc1ccccc1OP(=O)(Nc1ccccn1)Oc1ccccc1C,inactive: 1.03%
9,CCCCCOc1ccc(NP(C)(=O)Oc2ccc(Cl)cc2Cl)cc1 (stereo not drawn),inactive: 16.5%
10,O=[N+]([O-])c1cc([N+](=O)[O-])c(OC2CCCCC2O)c([N+](=O)[O-])c1 (stereo not drawn),inactive: -14.1%
11,CP(=O)(Nc1ccccc1)Oc1ccc(F)cc1 (stereo not drawn),inactive: 6.35%
12,O=C(OC1CN2CCC1CC2)c1ccccc1 (stereo not drawn),inactive: -24%
13,CCN(CC)CCCOC(=O)C(O)(c1ccccc1)C1CCCCC1 (stereo not drawn),inactive: -7.14%
14,CCC(=O)N1C2C3N(C(=O)CC)C1C1N(C(=O)CC)C(C(N1C(=O)CC)N3C(=O)CC)N2C(=O)CC,inactive: -17.1%
15,COC(=O)c1cc2c(s1)N=C(c1ccccc1)N(C)P2(=O)N1CCOCC1 (stereo not drawn),inactive: -15.5%
16,CC(=O)NC(SC(=S)N(CC(C)C)CC(C)C)C(Cl)(Cl)Cl (stereo not drawn),inactive: 14.6%
17,CC(C)(C)C(=O)NC(Sc1ccccc1)C(Cl)(Cl)Cl (stereo not drawn),inactive: -5.34%
18,CC(C)c1ccc(OP(C)(=O)Nc2ccc(SC(F)(F)F)cc2)cc1 (stereo not drawn),inactive: 47.7%
19,CP(=O)(Nc1ccccc1F)Oc1ccccc1 (stereo not drawn),inactive: 6.62%
20,O=P1(Nc2nc3ccc(Cl)cc3s2)COc2ccccc2O1 (stereo not drawn),inactive: 6.03%
21,CCOc1ccc(C2=NCC(CBr)S2)cc1 (stereo not drawn),inactive: -2.15%
22,CC(=O)Nc1ccc([As](=O)(O)O)c(O)c1,inactive: -7.07%
23,COc1ccc2c(c1O)-c1c(O)c(OC)cc3c1[C@H](C2)[N+](C)(C)CC3.O=[N+]([O-])c1cc([N+](=O)[O-])c([O-])c([N+](=O)[O-])c1[O-],inactive: -16.7%
24,CC(=O)Nc1ccc(Oc2c([N+](=O)[O-])cc([N+](=O)[O-])cc2[N+](=O)[O-])cc1,inactive: 4.95%
25,O=C(OCCN1CCN(CCOCc2ccccc2)CC1)C(O)(c1ccccc1)c1ccccc1,inactive: 16.5%

row,Structure (SMILES),inhibition
1,C[C@H]1OP(=O)(Oc2ccccc2)C[C@@H]2O[C@@H]21 (stereo partly drawn),inactive: -27.5%
2,C[C@@H]1C=CCP(=O)(Oc2ccccc2)O1 (stereo partly drawn),inactive: -17.4%
3,CC(=O)c1ccc(N2CC2c2ccncc2)cc1 (stereo not drawn),inactive: -8.12%
4,O=C(OC1CN2CCC1CC2)c1ccc([N+](=O)[O-])cc1 (stereo not drawn),inactive: 19.8%
5,c1nnnn1CCn1cnnn1,inactive: 7.92%
6,CCOP(C)(=S)SCC(=O)NC(C)(CC)C(=O)O (stereo not drawn),inactive: -14.3%
7,CC(C)C(=O)NC(Sc1ccccc1)C(Cl)(Cl)Cl (stereo not drawn),inactive: -20.9%
8,O=P(Nc1nccs1)(c1ccccc1)c1ccccc1,inactive: -20.4%
9,CP(=O)(Nc1ccc(SC(F)(F)F)cc1)Oc1ccc(F)cc1 (stereo not drawn),inactive: -0.866%
10,Cc1ccccc1NP(C)(=O)Nc1ccccc1C,inactive: -7.58%
11,CP(=O)(Nc1ccc2c(c1)OCCO2)Oc1ccccc1 (stereo not drawn),inactive: -8.24%
12,COc1ccc(NP(C)(=O)Oc2ccccc2OC)cc1 (stereo not drawn),inactive: -2.42%
13,CN(C)CCOC(=O)C(O)(c1ccccc1)C1CCCCC1 (stereo not drawn),inactive: -1.76%
14,O=P(Nc1nc2ccccc2s1)(c1ccccc1)c1ccccc1,inactive: 0.341%
15,C[C@H]1OP(=O)(Oc2ccccc2)[C@H](O)[C@H](O)[C@H]1N=[N+]=[N-] (stereo partly drawn),inactive: -19.7%
16,O=P(Nc1ccccn1)(c1ccc(Br)cc1)c1ccc(Br)cc1,inactive: 35.7%
17,CN(C)C1(CNC(=O)c2ccc(Cl)c(S(N)(=O)=O)c2)CCCCC1,inactive: 12.5%
18,COc1ccc(OP(C)(=O)Nc2cccc(Br)c2)cc1 (stereo not drawn),inactive: -15.8%
19,O=C(OC1CN2CCC1CC2)c1cccc(Cl)c1 (stereo not drawn),inactive: 1.88%
20,C(Cc1nn[nH]n1)Cc1nn[nH]n1,inactive: -13.2%
21,Nc1ccc([As](=O)(O)c2ccc([N+](=O)[O-])cc2)cc1,inactive: -16.1%
22,O=[As](O)(c1ccccc1)c1ccc(O)cc1,inactive: 2.26%
23,Cc1cc(-c2cccc3ccccc23)c(C)cn1.O=[N+]([O-])c1cc([N+](=O)[O-])c(O)c([N+](=O)[O-])c1,inactive: -21%
24,O=[N+]([O-])c1cc([N+](=O)[O-])c(NCC2CCS(=O)(=O)C2)c([N+](=O)[O-])c1 (stereo not drawn),active: 61%
25,O=[N+]([O-])c1ccc(O)c(/C=N/Nc2ccc([N+](=O)[O-])cc2[N+](=O)[O-])c1,inactive: -10.3%

row,Structure (SMILES),inhibition
1,CC(=O)NC(SC(=S)N(C)C)C(Cl)(Cl)Cl (stereo not drawn),inactive: 11.8%
2,O=[N+]([O-])c1ccc(OP2(=O)COCCO2)cc1 (stereo not drawn),inactive: -7.4%
3,O=[N+]([O-])c1ncn(CCn2cnc([N+](=O)[O-])n2)n1,inactive: 7.33%
4,CP(=O)(OC12CC3CC(CC(C3)C1)C2)OC12CC3CC(CC(C3)C1)C2,inactive: 36%
5,CCOC(=O)c1ccc(NP(C)(=O)Oc2ccc(Cl)cc2)cc1 (stereo not drawn),inactive: -22%
6,O=C(Nc1cc([As](=O)(O)O)ccc1O)c1ccccc1,inactive: -7.28%
7,Nc1ccc2c(ccc3cccnc32)n1.O=[N+]([O-])c1cc([N+](=O)[O-])c(O)c([N+](=O)[O-])c1,inactive: 4.12%
8,O=C(O)CNc1ccc([As](=O)(O)O)cc1,inactive: -7.73%
9,O=[N+]([O-])c1cccc(NC2=NCC(CBr)S2)c1 (stereo not drawn),inactive: 0.217%
10,O=[N+]([O-])c1ncn(CCn2ncnc2[N+](=O)[O-])n1,inactive: 5.1%
11,CC(C)(C)C(=O)NC(Sc1ccncn1)C(Cl)(Cl)Cl (stereo not drawn),inactive: -11.9%
12,CP(=O)(Oc1ccccc1)N1CCOC1=O (stereo not drawn),inactive: -29.6%
13,Cc1ccc(NP(=O)(Oc2ccccc2)Oc2ccccc2)nc1,inactive: 1.41%
14,CCc1ccc(OP(C)(=O)Nc2cccnc2)cc1 (stereo not drawn),inactive: -11.9%
15,CCc1nc2c(n1)c1c(non1O)c1c2no[n+]1[O-],inactive: -53.2%
16,O=[N+]([O-])c1cccc2n[nH]nc12,inactive: 1.9%
17,CC(=O)N1C2C3N(C(C)=O)C1C1N(C(C)=O)C(C(N1C(C)=O)N3C(C)=O)N2C(C)=O,inactive: -2.32%
18,COc1ccccc1OP(C)(=O)Nc1c(C)n(C)n(-c2ccccc2)c1=O (stereo not drawn),inactive: -11.1%
19,O=C(OCCCN1CCCC1)C(O)(c1ccccc1)C1CCCCC1 (stereo not drawn),inactive: 18.8%
20,CCN(CC)CC(O)COC(=O)C(O)(c1ccccc1)C1CCCCC1 (stereo not drawn),inactive: -3.2%
21,COc1ccc(OP(C)(=O)Nc2ccc(Br)cc2)cc1 (stereo not drawn),inactive: -29.8%
22,COc1ccc(C2=NCC(CBr)S2)cc1 (stereo not drawn),inactive: -3.16%
23,CC1CCN(C(=O)Oc2c(Cl)cc(Cl)c3cccnc23)CC1,inactive: 15.5%
24,CN(C)C(=O)c1c([N+](=O)[O-])cc([N+](=O)[O-])cc1[N+](=O)[O-],inactive: 43.6%
25,CC(C)=N/N=C(\N)N[N+](=O)[O-],inactive: -5.25%

row,Structure (SMILES),inhibition
1,CN(C)C(=O)OCCc1n(C)cc[n+]1C,inactive: -4.41%
2,CCN(/C(=N/P(=O)(N1CCOCC1)N1CCOCC1)N1CCOCC1)c1ccc(OC)cc1,inactive: -9.79%
3,CP(=O)(Nc1ccc(Cl)cc1)Oc1ccc(F)cc1 (stereo not drawn),inactive: -1.73%
4,COc1ccccc1OP(C)(=O)Nc1ccccc1Br (stereo not drawn),inactive: -6.88%
5,CC(C)(C)c1ccc(OP(C)(=O)O)cc1,inactive: -16%
6,Nc1ccc([As](=O)(O)c2ccc(N)cc2)cc1,inactive: -5.1%
7,C[N+]1=C2C=CC=CC=C2SC12C([N+](=O)[O-])=CC([N+](=O)[O-])=C[C-]2[N+](=O)[O-] (stereo not drawn),inactive: 2.79%
8,CN1CCCC(OC(=O)C(c2ccccc2)c2ccccc2)C1 (stereo not drawn),inactive: 8.21%
9,Clc1ccc(Cl)c(NC2=NCC(CBr)S2)c1 (stereo not drawn),inactive: -3.66%
10,CN(C)CCOC(=O)C(O)(c1ccccc1)C1CCCC1 (stereo not drawn),inactive: -8.72%
11,COc1ccccc1OP(=O)(Nc1ccc(C)cn1)Oc1ccccc1OC,inactive: 0.738%
12,COc1ccc(OP(C)(=O)Nc2ccccn2)cc1 (stereo not drawn),inactive: -10.4%
13,Cc1ccc(OP(=O)(Nc2nccs2)Oc2ccc(C)cc2)cc1,inactive: 4.65%
14,COc1ccccc1OP(C)(=O)Nc1ccc(Br)cc1 (stereo not drawn),inactive: -5.94%
15,Cc1ccc(N/C(=N/P(=O)(N2CCOCC2)N2CCOCC2)N2CCOCC2)cc1,inactive: -3.04%
16,NC(=O)c1cc([N+](=O)[O-])cc([N+](=O)[O-])c1N,inactive: 6.49%
17,CCc1ccc(OP(C)(=O)O)cc1,inactive: 1.52%
18,CP(=O)(Nc1ccccn1)Oc1ccccc1 (stereo not drawn),inactive: -4.88%
19,COc1ccccc1OP(C)(=O)Nc1ccc(C)cc1C (stereo not drawn),inactive: -9.54%
20,Oc1ccccc1CNc1ccccn1,inactive: 2.1%
21,O=C(NC(Sc1ccncn1)C(Cl)(Cl)Cl)c1ccccc1 (stereo not drawn),inactive: 0.215%
22,Cc1c2non([O-])c-2c(C)[n+](=O)[n+]1[O-],inactive: -9.85%
23,Cc1c(NP(C)(=O)Oc2ccc(C(C)C)cc2)c(=O)n(-c2ccccc2)n1C (stereo not drawn),inactive: -5.68%
